Source: article PMC11345766, “Computational Design of Pore-Forming Peptides with Potent Antimicrobial and Anticancer Activities” (Journal of Medicinal Chemistry, 2024)
Where two headings read alike, the source gives them in different places.

Tests used:
[1] = MTT cytotoxicity assay
Protocol: (§1) Cytotoxicity against human immortalized keratinocytes HaCaT, human alveolar basal epithelial A549 (derived from adenocarcinoma), and murine macrophages RAW 264.7 was tested using MTT [3-(4,5-dimethylthiazol-2-yl)-2,5-diphenyltetrazolium bromide] assay. Cells were cultured in Dulbecco’s modified Eagle’s medium (DMEM) containing 4 mM glutamine for HaCaT, or 2 mM glutamine for A549 and RAW 264.7 cells, supplemented with 10% heat-inactivated fetal bovine serum (FBS) and antibiotics (0.1 mg/mL penicillin and streptomycin). Nonessential amino acids (NEAA) and sodium pyruvate (1 mM) were added for macrophages. Cell lines were grown in 25 and 75 cm^2 flasks at 37 °C in a humidified atmosphere with 5% CO2. Cells were suspended in DMEM, containing glutamine, NEAA, and sodium pyruvate (as described above), supplemented with 2% FBS, plated in 96-well plates at 4 × 10^4 cells/well, and incubated at 37 °C in a 5% CO2 atmosphere. After overnight incubation, the medium was replaced with fresh DMEM supplemented with peptides at different concentrations: 2, 4, 8, 16, 32, 64, and 128 μM. Negative controls were cells without peptides. […] After 4 h of incubation, acidified isopropanol was added to dissolve formazan crystals and measured for OD570 using Tecan microplate reader Infinite M200 (Salzburg, Austria).

[2] = MTT cytotoxicity assay; remark: listed apart in the source
Protocol: as §1

[3] = MTT cytotoxicity assay; remark: listed apart in the source
Protocol: as §1

CC[C@H](C)[C@H](NC(=O)CN)C(=O)NCC(=O)N[C@@H](C)C(=O)N[C@H](C(=O)N[C@@H](CC(C)C)C(=O)N[C@@H](CCCCN)C(=O)N[C@H](C(=O)N[C@@H](CC(C)C)C(=O)N[C@H](C(=O)N[C@H](C(=O)NCC(=O)N[C@@H](CC(C)C)C(=O)N1CCC[C@H]1C(=O)N[C@@H](C)C(=O)N[C@@H](CC(C)C)C(=O)N[C@H](C(=O)N[C@@H](CO)C(=O)N[C@@H](Cc1c[nH]c2ccccc12)C(=O)N[C@H](C(=O)N[C@@H](CCCCN)C(=O)N[C@@H](CCCNC(=N)N)C(=O)N[C@@H](CCCCN)C(=O)N[C@@H](CCCNC(=N)N)C(=O)N[C@@H](CCC(N)=O)C(=O)N[C@@H](CCC(N)=O)C(N)=O)[C@@H](C)CC)[C@@H](C)CC)[C@@H](C)O)[C@@H](C)O)C(C)C)C(C)C [Melittin, reference compound]
IC50 [1]: 3000 nM | IC50 [2]: < 2000 nM | IC50 [3]: 2000 nM
